Measurements published in PMC9151520 (Archives of Toxicology, 2022).
Where “and” joins values, the source holds several entries; their conditions need not be identical. Equal values may be shown once. Read-outs that look alike come from different tables or passages of the source.

How the values were obtained:
[1] = test system: p53 signaling (p53RE-bla HCT-116 cells)
[2] = test system: p53 signaling (p53RE-bla HCT-116 cells); remark: listed apart in the source
[3] = test system: p53 signaling (p53RE-bla HCT-116 cells); remark: listed apart in the source
in vitro = details: male, Sprague Dawley, rat, microsomes, pH 7.4

Cl.Nc1c2ccccc2nc2ccccc12.O
p53 activation Efficacy, No MS [1]: 414.606% and 313.511% | EC50 ([1]; read-out: p53 activation EC50, No MS): 7.66 µM and 6.41 µM | p53 activation EC50, RLM [2]: inactive | EC50 ([2]; read-out: p53 activation EC50, RLM): 11.6 µM | Viability EC50, HLM (p53RE-bla HCT-116 cells): inactive | Viability EC50, No MS (p53RE-bla HCT-116 cells): inactive | Viability EC50, RLM (p53RE-bla HCT-116 cells): inactive | Viability Efficacy, HLM (p53RE-bla HCT-116 cells): inactive | Viability Efficacy, No MS (p53RE-bla HCT-116 cells): inactive | Viability Efficacy, RLM (p53RE-bla HCT-116 cells): inactive | p53 activation EC50, HLM [3]: inactive | EC50 ([3]; read-out: p53 activation EC50, HLM): 16.6 µM

COP(=S)(OC)SCn1nnc2ccccc2c1=O [Azinphos-methyl]
half-life (in vitro): 1.32 ± 0.64 min

CCOP(=S)(OCC)Oc1cc(Cl)c(Br)cc1Cl [Bromophos-ethyl]
half-life (in vitro): > 120 min

CCOP(=S)(OCC)Oc1ccc([S+](C)[O-])cc1 (centres unmarked) [Fensulfothion]
half-life (in vitro): 13.2 ± 1.25 min

CCOP(=S)(OCC)Oc1cc(C)nc(N(CC)CC)n1 [Pirimiphos-ethyl]
half-life (in vitro): 1.09 ± 0.08 min

CCOP(=S)(OCC)Oc1nc(Cl)n(C(C)C)n1 [Isazofos]
half-life (in vitro): 2.12 ± 0.14 min
